Compounds with a hit are over-represented: about 1.7% of the library has one in this group of screens.
GLP1R cytotox – cytotoxicity in counter-screen for GLP-1R inverse agonists; Potency, µM (highest dose often 38.3 µM), most hits filed as inhibitors; hit rate 0.13% among 410,000; HEK293 cAMP-luciferase reporter cells, luminescence, 24 h;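 note: loss of luciferase light is scored as toxicity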
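1536-well qHTS counterscreen of the MLSMR; 200 cells/uL, 12 h pre-incubation, 23 nL cpd, 24 h at 37 deg C 5% CO2, luciferase detection reagent, 12 min RT, luminescence. Inhibition = undesired.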
GLP-1R agonist – agonists of human GLP-1 receptor. P43220. hit rate 0.007% among 380,000. HEK293 GLP-1R CRE-luciferase, luminescence, 4-6 h; cells express a hypersensitive GLP-1R form. AID 624172. Potency, µM (titrated, usually from 45.6 µM), actives largely listed as activators
PTHR1 ag – agonists of human PTHR1 parathyroid hormone receptor; Q03431; AID 743266; HEK293 GP2 PTHR1 cells, GloSensor cAMP luminescence, 1 h; hit rate 0.075% among 410,000; Potency, µM (series often up to 115 µM), actives largely listed as activators; note: nearly all actives have a fitted effect of over 55% in size
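HEK-293-derived GP2 cells expressing PTHR1 and a GloSensor cAMP reporter, 3,000/well, plated overnight, given luciferin plus IBMX (each 0.5 mM as added) for 1 h at 37 °C, then compound for 1 h at 37 °C. Luminescence was read after 15 min at room temperature.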
Pin1 inh – blocks the human prolyl isomerase Pin1; Pin1 FP peptide displacement, HiFluor488, 10 min; Potency, µM (highest dose often 115 µM), usual class: inhibitors; hit rate 0.009% among 390,000; active = well fitted inhibition curve with a large enough effect in the polarisation, with a control signal flat, not every such curve was filed as active; inconclusive = small, poorly fitted or top-dose-only effect, or effect the other way, or a change in a side signal; inactive = no such curve, though single readings can be large or run the other way; the % refers to the polarisation
GLP1R inv ag – inverse agonists of human GLP-1 receptor. hit rate 1.6% among 410,000. HEK293 GLP-1R CRE-luciferase, luminescence, 24 h; GLP-1R form is constitutively active. Potency, µM (titrated, usually from 38.3 µM), usual class: inhibitors; note: nearly all actives have a fitted effect of over 55% in size
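Constitutively active GLP-1R drives a cAMP-responsive luciferase in stably transfected HEK293 cells; test compounds are added after overnight (12 h) attachment and left 24 hr, and signal loss in luminescence marks inhibition.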
miR-21 reporter – miR-21 reporter, rising signal | AID 2288 | HeLa miR-21 FLuc reporter, luciferase, 48 h | 340,000 tested, under 10 active | Potency, µM (doses to about 38.3 µM); active = well fitted rising curve with a large enough effect; inconclusive = small, poorly fitted or top-dose-only effect; inactive = no such curve, though single readings can be large or run the other way;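 note: miR-21 action dims this reporter so a rising signal means less miR-21 action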
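HeLa cells endogenously expressing miR-21, stably carrying CMV-driven firefly luciferase with a downstream miR-21 binding site, 2000 cells/well. Titrations up to approximately 40 uM, 48 hours; luciferase luminescence read.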
A number is an active result; i = inactive; ? = inconclusive; nt = no result. Unless noted, calls come from the whole dose curve; as a rule, active = well fitted curve in the direction sought with a large enough effect; inconclusive = small, poorly fitted or top-dose-only effect, or another doubt; inactive = no such curve, though single readings can be large; an effect the other way counts as inactive or inconclusive.

SMILES | GLP1R cytotox | GLP-1R agonist | PTHR1 ag | Pin1 inh | GLP1R inv ag | miR-21 reporter
COc1ccc2ccccc2c1CNC(C)c1ccccc1 (stereo not given) | ? | i | i | i | ? | i
CC(NCCCOc1cccc2ccccc12)c1ccccc1 (stereo not given) | ? | i | i | i | 8.91µM | ?
Cc1cccc(NC(=O)CSc2nc3ccccc3c3nc(CCc4c(C)n[nH]c4C)nn23)c1 | 5.01µM | i | i | i | ? | i
CCn1nc(NS(=O)(=O)c2ccc(F)cc2)c2cc3cccc(C)c3nc21 | i | i | i | i | 10µM | i
C=CCN1C(=O)C2(c3ccccc31)C1CCCC=C1C(C#N)=C(N)C2(C#N)C#N (stereo not given) | i | i | i | ? | 4.47µM | i
O=C(CNC(=O)C1CCCCC1)OCc1ccccc1 | nt | nt | nt | i | nt | nt
Cc1cccc(Cn2nc(C(C)(C)C)cc2C(=O)Nc2ccc(F)cc2)c1 | ? | i | i | i | 5.01µM | i
Cc1ccc(Cn2nc(C)cc2C(=O)Nc2ccc(Cl)cc2)cc1 | i | i | i | i | 4.47µM | i
COC(=O)c1cc(NC(=O)c2cc(C(C)(C)C)nn2Cc2ccc(F)cc2)ccc1N1CCOCC1 | i | i | i | i | 3.55µM | ?
CC(C)(C)c1cc(C(=O)NN)n(Cc2ccc(F)cc2)n1 | i | i | i | i | ? | i
O=C(Nc1cccc2cccnc12)OCc1ccccc1 | nt | nt | nt | i | nt | nt
O=S1(=O)N=C(Oc2ccccc2Cl)c2ccccc21 | nt | nt | nt | i | nt | nt
O=C1CCCC2=C1C1(CCCC1)N=C(Nc1nc3cc4ccccc4cc3o1)N2 | nt | nt | nt | i | nt | nt
CCc1cccc(NC(=O)c2ccc(CNS(=O)(=O)c3ccc4c(c3)C(C)(C)C(=O)N4C)cc2)c1 | i | nt | i | i | 10µM | ?
CCN1CCc2c(sc(-n3cccc3)c2C(C)NC(=O)Nc2cc(Cl)c(OC)cc2OC)C1 (stereo not given) | i | nt | i | i | i | i
Cc1ccc(/C=N/NC(=O)CSc2nc3ccccc3n2Cc2ccccc2)o1 | i | i | i | i | i | i
Cc1ccc(/C=N/NC(=O)CSc2nc3ccccc3n2Cc2ccc(Cl)cc2)o1 | i | i | i | i | 10µM | i
CCC(=O)NCC(c1cccs1)N1CCOCC1 (stereo not given) | i | i | i | i | i | i
Cc1cc(SCC(=O)NCC(c2cccs2)N2CCOCC2)c(C)cc1Br (stereo not given) | i | i | i | i | 11.2µM | nt
CC(C)(Oc1ccc(Cl)cc1)C(=O)NCC(c1ccco1)N1CCCCC1 (stereo not given) | i | i | i | i | 8.91µM | nt
Cc1c(C(=O)NCC(c2ccco2)N2CCCC2)sc2ccccc12 (stereo not given) | i | i | i | i | 8.91µM | nt
Cc1ccc(C)c(SCC(=O)NCC(c2ccco2)N2CCCCC2)c1 (stereo not given) | i | i | i | i | 11.2µM | nt
O=C(NCC(c1ccco1)N1CCCC1)c1sc2ccccc2c1Cl (stereo not given) | i | i | i | i | i | i
COc1ccc(C(CNC(=O)C(C)(C)Oc2ccc(Cl)cc2)N2CCCCC2)cc1 (stereo not given) | ? | i | i | i | ? | i
Cc1nc(CC(=O)Nc2cccc(C)c2C)cs1 | i | nt | i | i | i | i
Cc1ccc(S(=O)(=O)NC(CC(C)C)C(=O)NCC(c2ccco2)N2CCCCC2)cc1 (stereo not given) | i | i | i | i | 4.47µM | nt
CC(=O)Nc1ccc(S(=O)(=O)NC(C)C(=O)NCC(c2ccco2)N2CCCCC2)cc1 (stereo not given) | i | i | i | i | i | nt
CCCCOc1ccccc1C1C(C(N)=O)=C(C)Nc2nnnn21 (stereo not given) | i | i | i | i | i | i
CCCOc1ccccc1C1C(C(=O)Nc2ccccc2)=C(C)Nc2nnnn21 (stereo not given) | ? | nt | i | i | 8.91µM | i
